Measurements reported in ChEMBL document CHEMBL1126934, “Non-peptide ligands for opioid receptors. Design of kappa-specific agonists” (J Med Chem, 1993).

Amino acid sequences for entries named in this document (tags omitted).
UniProt P33533, whole entry, looked up: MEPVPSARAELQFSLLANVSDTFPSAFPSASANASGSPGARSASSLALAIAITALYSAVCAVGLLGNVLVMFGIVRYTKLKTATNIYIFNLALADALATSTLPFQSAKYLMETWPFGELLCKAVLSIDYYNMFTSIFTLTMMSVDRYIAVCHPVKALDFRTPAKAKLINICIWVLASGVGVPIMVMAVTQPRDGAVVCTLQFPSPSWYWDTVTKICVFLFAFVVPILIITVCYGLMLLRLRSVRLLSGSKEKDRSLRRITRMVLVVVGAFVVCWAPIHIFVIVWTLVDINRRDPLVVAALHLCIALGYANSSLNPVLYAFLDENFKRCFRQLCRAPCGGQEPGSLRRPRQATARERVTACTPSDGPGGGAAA

Biological target: Delta-type opioid receptor (Rattus norvegicus) (UniProt P33533)
Assay: Binding affinity for rat delta opioid receptor was evaluated by displacing [3H]- diprenorphine

CN(C(=O)Cc1ccc(Cl)c(Cl)c1)C1CCCCC1N1CCCC1 (stereo unspecified)
Binding affinity: > 25 µM
